Common to all, as to assay type: cell-based
Experiment [1] relates to human whole blood. The experiment in a line: TNF-α stimulation of heparinized human whole blood, mRNA quantification. The note with it: 4 hours, FIG. 9. Here is the method:
FIG. 9. Since isolated islets are not totally free of blood, PUMA and IL-8 expressed in human islets by TNF-α stimulation may derive from cells circulating in blood. However, PUMA is not induced by TNF-α in human whole blood. TNF-α (2, 20, 200 ng/ml) was mixed with heparinized whole blood and incubated at 37° C. for 4 hours. Various mRNA were quantified using the method descried previously (44). >20 ng/ml TNF-α induced both IL-8 and endogenous TNF mRNA but at lower levels. PUMA mRNA was not induced by TNF-α even with the highest dose (200 ng/mL) used with islet experiments.
Pancreatic tissues, including islets and acinar cells, are known to contain passenger leukocytes, which may be the source of the PUMA, IL-8 and TNF expression detected above.

Experiment [2] deals with human islets. Kind of experiment: β cell apoptosis by TUNEL/insulin staining and Laser Scanning Cytometry. As to conditions: 24-hour culture, TNF-α 50 ng/mL with or without IFN-γ 1000 U/mL; FIG. 11B, 11C. How it is done: FIGS. 11A-H. TNF-α induces apoptosis through mitochondrial pathway in human islets. Silencing PUMA prevented cell death induced by TNF-α and IFNγ stimulation in INS-1 cells. FIG. 11A) The activation of Caspase-8, Caspase-9 and Caspase-3 was examined in islets cultured with or without TNF-α (5 and 50 ng/ml) and/or IFNγ (1000 U/ml) for 24 hours by western blot. […] Paraffin sections from human islets cultured for 24 hours with or without TNF-α (50 ng/ml) (FIG. 11B) or the combination of TNF-α (50 ng/ml) and IFNγ (1000 U/ml) (FIG. 11C) were stained for TUNEL and insulin to identify apoptotic β cells, quantified using Laser Scanning Cytometry. The percentage of apoptotic β cells was calculated by dividing the TUNEL-insulin double-positive cell number by the total number of insulin-positive cells in each section (n=3, * p<0.05). β cell apoptosis was induced by TNF-α and IFNγ through activation of Caspase-9 and Caspase-3. β cell apoptosis was not detected by TUNEL staining when stimulated by TNF-α alone. However TNF induced islet apoptosis was confirmed by the increased expression of cleaved Caspase-9 and Caspase-3. […] FIG. 11D) Percentage of dead cells assessed by % DAPI positive cells (*p<0.01, n=3). […] FIG. 11E) Mitochondrial membrane permeability is assessed by TMRE staining (**p<0.005, n=3). […]

Experiment [3] has as its system human islets. The experiment in a line: Western blot of Caspase-8, Caspase-9 and Caspase-3 activation in human islets. As to conditions: TNF-α 5 and 50 ng/ml and/or IFNγ 1000 U/ml, 24 hours; FIG. 11A. Here is the method: FIGS. 11A-H. TNF-α induces apoptosis through mitochondrial pathway in human islets. Silencing PUMA prevented cell death induced by TNF-α and IFNγ stimulation in INS-1 cells. FIG. 11A) The activation of Caspase-8, Caspase-9 and Caspase-3 was examined in islets cultured with or without TNF-α (5 and 50 ng/ml) and/or IFNγ (1000 U/ml) for 24 hours by western blot. […] Paraffin sections from human islets cultured for 24 hours with or without TNF-α (50 ng/ml) (FIG. 11B) or the combination of TNF-α (50 ng/ml) and IFNγ (1000 U/ml) (FIG. 11C) were stained for TUNEL and insulin to identify apoptotic β cells, quantified using Laser Scanning Cytometry. The percentage of apoptotic β cells was calculated by dividing the TUNEL-insulin double-positive cell number by the total number of insulin-positive cells in each section (n=3, * p<0.05). β cell apoptosis was induced by TNF-α and IFNγ through activation of Caspase-9 and Caspase-3. β cell apoptosis was not detected by TUNEL staining when stimulated by TNF-α alone. However TNF induced islet apoptosis was confirmed by the increased expression of cleaved Caspase-9 and Caspase-3. PUMA siRNA or Control siRNA was transfected into INS-1 cells 48 hours before cytokine stimulation, and cultured an additional 48 hours before flow cytometric analysis. FIG. 11D) Percentage of dead cells assessed by % DAPI positive cells (*p<0.01, n=3). DAPI (4′,6-diamidino-2-phenylindole) is a fluorescent stain that binds to DNA. FIG. 11E) Mitochondrial membrane permeability is assessed by TMRE staining (**p<0.005, n=3). All data are presented as a mean±standard error. […] Representative data from 3 independent experiments. Silencing PUMA protected β cell from death and loss of mitochondrial membrane potential in INS-1 cells induced by TNF-α and IFNγ. […]
To examine whether islet apoptosis induced by such treatments is regulated by the extrinsic or intrinsic pathway, Caspase-8, Caspase-9 and Caspase-3 activation was determined in treated islets by western blot analysis. […]
Background: In western blotting, separated proteins are transferred to a membrane and probed.

As for “TNF-α: recombinant human (or rat, for INS-1) TNF-α, R&D Systems; cytokine stimulus”, the “IL-8 mRNA in blood leukocytes” value in experiment [1] (2, 20, 200 ng/ml) is on record as “did express a high level of IL-8”. For the same substance, the “PUMA mRNA in blood leukocytes” value in experiment [1] (up to 200 ng/mL, 37° C.) is reported as “did not induce PUMA”. Also, the “β cell apoptosis (TUNEL-insulin double-positive cells)” value in experiment [2] is “did not induce β cell apoptosis”. For the same substance, in experiment [3], the “Caspase-3 activation (western blot)” value is “induced”, the “Caspase-8 activation (western blot)” value is reported as “not activated” and the “Caspase-9 activation (western blot)” value is given as “induced”.

For the origin of these results see patent US20180030537A1, “PUMA, A PRO-APOPTOTIC GENE, AS A NOVEL MOLECULAR BIOMARKER FOR TNFALPHA-INDUCED HUMAN ISLET DAMAGE” (CITY OF HOPE, priority 2010, published 2018).
